In US7601735B2, “Antiviral compounds” (priority 2001, dated 2009):

Test system: BVDV NADL
Experiment: XTT cytopathicity assay, infected cells
Type: cell-based, bovine viral diarrhoea virus
Conditions: in one experiment
Description: The cells were washed twice in warm phosphate buffered saline (PBS) and then infected with BVDV NADL (100 pfu/well) in 100 μl of DMEM supplemented with 5% horse serum, 2 mM L-glutamine, 50 U/ml penicillin and 50 μg/ml streptomycin. Some wells were mock infected to act as controls. A further 100 μl of DMEM supplemented as above, but containing different concentrations of test compound or no compound was then added to each well. Triplicate wells were used for each compound concentration. In parallel, uninfected cells were treated with compound to assess cytotoxicity. The plates were then incubated at 37° C. with 5% CO2. […] The absorbance was then determined at 450 nm.

## CCCCCCCCCN1C[C@H](O)[C@@H](O)[C@H](O)[C@H]1CO [N-Nonyl-DNJ, N-nonyl-deoxynojirimycin]
  selectivity index: 2 fold
